The record followed here is PubChem BioAssay AID540295 (The Scripps Research Institute Molecular Screening Center, 2011).

The chains behind the UniProt entries cited, without tags or fusion partners.
UniProt P32245, whole entry: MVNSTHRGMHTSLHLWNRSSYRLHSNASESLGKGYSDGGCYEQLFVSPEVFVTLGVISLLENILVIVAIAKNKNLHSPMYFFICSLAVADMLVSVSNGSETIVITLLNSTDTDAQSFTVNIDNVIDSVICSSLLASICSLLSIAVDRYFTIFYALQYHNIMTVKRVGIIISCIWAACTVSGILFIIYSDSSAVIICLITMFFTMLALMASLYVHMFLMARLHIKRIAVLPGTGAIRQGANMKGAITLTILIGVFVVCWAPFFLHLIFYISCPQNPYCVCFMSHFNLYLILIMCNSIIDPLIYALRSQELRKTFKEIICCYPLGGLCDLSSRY

This is a selection; strong and weak results do not stand in their true shares. The source made the active and inactive calls.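 How the source made its calls: active means inhibition above its plate's cutoff, the mean of tested wells on that plate plus 3 SD (cut at about 29% in these data); inactive means the rest.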

The assay has as its target Melanocortin receptor 4 (Homo sapiens) (UniProt P32245). Nature of the assay: blockers of MC4R Gs-cAMP response – cell-based, TR-FRET, antagonist arm of biased-ligand search, primary screen (AID 540295).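 Further: 0% = Melanotan II alone and 100% = Melanotan II plus saturating MCL0020.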 The conditions noted are these: MC4R-expressing cells, MTII-stimulated cAMP, LANCE TR-FRET; at 6.5 µM; active compounds read high.
As to `COc1ccc(OP(C)(=O)Nc2ccc(SC(F)(F)F)cc2)cc1` (stereo not given), the inhibition is inactive: 3.41%.
With `CP(=O)(OCCOc1ccccc1)OCCOc1ccccc1` the figure was inactive: 0.66%; with `CCCCCCCCCCCCCCCC1C[N+](C)(C)CCOP(C)(=O)O1` (stereo not given), inactive: 17.4%; with `CP(=O)(Nc1ccc(Cl)cc1Cl)Oc1ccccc1` (stereo not given), inactive: 7.13%.
The figure for `Cc1cc(C)cc(OP(C)(=O)Nc2cccc(C(F)(F)F)c2)c1` (stereo not given) is inactive: 1.46%; for `O=C1C(O)=C([N+](=O)[O-])C(=O)C(O)=C1[N+](=O)[O-]` it is inactive: 0.13%.
For `COc1ccccc1OP(C)(=O)Nc1ccc(C)c(C)c1` (stereo not given), the inhibition was inactive: 3.2%.
The figure for `COc1ccc(OP(C)(=O)Nc2ccccc2Br)cc1` (stereo not given) is inactive: 5.37%; for `O=[N+]([O-])c1cc([N+](=O)[O-])c(Nc2ccccn2)c([N+](=O)[O-])c1` it is inactive: 2.46%.
With `Cc1c(NP(C)(=O)Oc2ccc(C(C)C)cc2)c(=O)n(-c2ccccc2)n1C` (stereo not given) the figure was inactive: 1.39%.
The figure for `COc1ccccc1OP(C)(=O)Nc1ccc(C)cc1C` (stereo not given) is inactive: -5.8%; for `CP(=O)(Nc1ccccn1)Oc1ccccc1` (stereo not given) it is inactive: 1.84%.
On to `CCc1ccc(OP(C)(=O)O)cc1`, for which the inhibition is inactive: 6.78%.
The figure for `COc1ccccc1OP(C)(=O)Nc1ccc(Br)cc1` (stereo not given) is inactive: 5.18%.
With `CN(C)CCOC(=O)C(O)(c1ccccc1)C1CCCC1` (stereo not given) the figure was inactive: 1.66%; with `CC(C)(C)c1ccc(OP(C)(=O)O)cc1`, inactive: 9.67%; with `COc1ccccc1OP(C)(=O)Nc1ccccc1Br` (stereo not given), inactive: 12.2%.
The figure for `CP(=O)(Nc1ccc(Cl)cc1)Oc1ccc(F)cc1` (stereo not given) is inactive: 15.9%; for `CN(C)C(=O)c1c([N+](=O)[O-])cc([N+](=O)[O-])cc1[N+](=O)[O-]` it is inactive: -6.45%.
`COc1ccc(OP(C)(=O)Nc2ccc(Br)cc2)cc1` (stereo not given): the inhibition is inactive: 4.99%.
The figure for `CCN(CC)CC(O)COC(=O)C(O)(c1ccccc1)C1CCCCC1` (stereo not given) is inactive: 2.65%.
The figure for `O=C(OCCCN1CCCC1)C(O)(c1ccccc1)C1CCCCC1` (stereo not given) is inactive: 6.35%; for `COc1ccccc1OP(C)(=O)Nc1c(C)n(C)n(-c2ccccc2)c1=O` (stereo not given) it is inactive: 0.04%.
With `CCc1ccc(OP(C)(=O)Nc2cccnc2)cc1` (stereo not given) the figure was inactive: 27.5%; with `CP(=O)(Oc1ccccc1)N1CCOC1=O` (stereo not given), inactive: 0.96%; with `CCOC(=O)c1ccc(NP(C)(=O)Oc2ccc(Cl)cc2)cc1` (stereo not given), inactive: 11.7%.
As for `CP(=O)(OC12CC3CC(CC(C3)C1)C2)OC12CC3CC(CC(C3)C1)C2`, the inhibition was inactive: 9.9%.
With `CP(=S)(Nn1cnnc1)Oc1ccccc1` (stereo not given), the inhibition was inactive: 2.09%.
In the case of `CP(=O)(Nc1ccccc1Br)Oc1ccccc1` (stereo not given), the inhibition is inactive: 2.01%.
Turning to `COc1ccccc1OP(C)(=O)Nc1ccccc1` (stereo not given), the inhibition is inactive: -1.02%.
With `O=[N+]([O-])c1cc([N+](=O)[O-])c(O)c([N+](=O)[O-])c1.c1ccc(Oc2ccncc2)cc1` the figure was inactive: 11.1%; with `CCOC(=O)c1ccc(NP(C)(=O)Oc2ccc(OC)cc2)cc1` (stereo not given), inactive: 12.1%.
With `CCOP(C)(=S)SCC(=O)NC(C)C(=O)O` (stereo not given) the figure was inactive: 8.02%; with `CP(=O)(Nc1ccccn1)Oc1ccc(Cl)cc1` (stereo not given), inactive: 6.73%; with `CP(=O)(Oc1ccccc1)OC(c1ccccc1)C(F)(F)F` (stereo not given), inactive: 1.44%.
With `CP(=O)(Nc1ccc(SC(F)(F)F)cc1)Oc1ccc(Cl)cc1` (stereo not given) the figure was inactive: 2.57%.
As for `Cc1cccc(C)c1OP(C)(=O)Nc1ccc(SC(F)(F)F)cc1` (stereo not given), the inhibition was inactive: 6.53%.
Take `Cc1ccc(Nc2c([N+](=O)[O-])cc([N+](=O)[O-])cc2[N+](=O)[O-])cc1`: the inhibition was inactive: 6.14%.
With `Cc1cc(C)cc(OP(C)(=O)Nc2ccc(SC(F)(F)F)cc2)c1` (stereo not given) the figure was inactive: -4.15%; with `CCc1ccc(OP(C)(=O)N2CCN(c3ccc([N+](=O)[O-])cc3)CC2)cc1` (stereo not given), inactive: 9.76%.
With `CP(=O)(NC(=O)Nc1ccccc1)Oc1ccccc1` (stereo not given) the figure was inactive: -2.98%.
The figure for `CCN(CC)CCCOC(=O)C(O)(c1ccccc1)c1ccccc1` is inactive: 1.25%; for `Cc1ccc(NP(C)(=O)Oc2ccccc2)c(C)c1` (stereo not given) it is inactive: 3.73%.
On to `COc1ccccc1OP(C)(=O)Nc1ccc(C)cc1` (stereo not given), for which the inhibition is inactive: -1.4%.
The figure for `CCOC(=O)c1ccc(NP(C)(=O)Oc2ccccc2)cc1` (stereo not given) is inactive: 7.22%; for `Cc1cc(C)cc(OP(C)(N)=O)c1` (stereo not given) it is inactive: 12.2%.
The figure for `COc1ccc(OP(C)(=O)Nc2cccc(F)c2)cc1` (stereo not given) is inactive: 7.38%; for `COc1ccccc1OP(C)(=O)Nc1cc(Cl)ccc1C` (stereo not given) it is inactive: -1.26%; for `O=[N+]([O-])c1cc([N+](=O)[O-])c(Nc2cccnc2)c([N+](=O)[O-])c1` it is inactive: -1.5%.
On to `O=[N+]([O-])c1ccc2c(c1)C=Nc1ccccc1O2`, for which the inhibition is inactive: -21.5%.
For the compound `Cc1cccc(C)c1OP(C)(N)=O` (stereo not given), the inhibition is inactive: 1.01%.
With `CC(C)(C)c1ccc(OP(C)(=O)Nc2ccc(SC(F)(F)F)cc2)cc1` (stereo not given) the figure was inactive: 13.9%; with `CC1=NCCc2c1[nH]c1ccccc21.O=[N+]([O-])c1cc([N+](=O)[O-])c(O)c([N+](=O)[O-])c1`, inactive: 8.33%; with `O=C(O)c1cccc(Nc2c([N+](=O)[O-])cc([N+](=O)[O-])cc2[N+](=O)[O-])c1`, inactive: 13.2%.
As to `Cc1ccc(C)c(NP(C)(=O)Oc2ccccc2)c1` (stereo not given), the inhibition is inactive: -6.98%.
With `CP(=O)(Nc1cccc(Br)c1)Oc1ccccc1` (stereo not given) the figure was inactive: 6.35%.
Turning to `Cc1cc(C)cc(OP(C)(=O)Nc2ccccn2)c1` (stereo not given), the inhibition was inactive: 4.21%.
With `COc1ccccc1OP(C)(=O)Nc1cccc(Br)c1` (stereo not given) the figure was inactive: 9.14%; with `CCOC(=O)c1ccc(NP(C)(=O)Oc2cc(C)cc(C)c2)cc1` (stereo not given), inactive: -6.42%; with `Cc1cc(C)cc(OP(C)(=O)Nc2ccc(C)cc2C)c1` (stereo not given), inactive: 4.55%.
The figure for `O=[N+]([O-])c1cc([N+](=O)[O-])c(-c2cnn(-c3ccccc3)c2)c([N+](=O)[O-])c1` is inactive: 4.76%.
With `Cc1nc2ccc3ccccc3c2s1.O=[N+]([O-])c1cc([N+](=O)[O-])c(O)c([N+](=O)[O-])c1` the figure was inactive: -1.46%; with `O=[N+]([O-])c1cc([N+](=O)[O-])c(-n2nnc3ccccc32)c([N+](=O)[O-])c1`, inactive: 1.45%; with `CN1CCCCC1COC(=O)C1(O)c2ccccc2CCc2ccccc21` (stereo not given), inactive: -1.16%.
On to `COc1ccccc1OP(C)(=O)Nc1c(C)cccc1C` (stereo not given), for which the inhibition was inactive: 15.6%.
With `CP(=O)(Nc1ccc(SC(F)(F)F)cc1)Oc1ccccc1` (stereo not given) the figure was inactive: 5.69%.
The figure for `CCCOc1ccc(NP(C)(=O)Oc2ccc(Cl)cc2)cc1` (stereo not given) is inactive: 0.75%.
On to `CCOC(=O)C(CC)C1=NC(C)(C)Cc2ccccc21.O=[N+]([O-])c1cc([N+](=O)[O-])c(O)c([N+](=O)[O-])c1` (stereo not given), for which the inhibition was inactive: 5.65%.
With `O=[N+]([O-])c1cc([N+](=O)[O-])c(Nc2nnnn2CCO)c([N+](=O)[O-])c1` the figure was inactive: 9.78%; with `CC1=C2N=C(C=C3N=C(C(C)=C4[N-][C@@](C)([C@@H]5N=C1[C@](C)(CCC(=O)NC[C@@H](C)OP(=O)([O-])O[C@H]1[C@@H](O)[C@@H](n6cnc7cc(C)c(C)cc76)O[C@@H]1CO)[C@H]5CC(N)=O)[C@@](C)(CC(N)=O)[C@@H]4CCC(N)=O)[C@@](C)(CC(N)=O)[C@@H]3CCC(N)=O)C(C)(C)[C@@H]2CCC(N)=O.[C-]#N.[Co+3]`, inactive: 1.83%.
